Consider 15 compounds from ChEMBL document CHEMBL5380837, “Structure-Activity Relationships of Truncated 1'-Homologated Carbaadenosine Derivatives as New PPARγ/δ Ligands: A Study on Sugar Puckering Affecting Binding to PPARs” (J Med Chem, 2023).

The target in experiment [1] is T1, Peroxisome proliferator-activated receptor alpha (Homo sapiens) (UniProt Q07869).
T1 sequence (whole entry): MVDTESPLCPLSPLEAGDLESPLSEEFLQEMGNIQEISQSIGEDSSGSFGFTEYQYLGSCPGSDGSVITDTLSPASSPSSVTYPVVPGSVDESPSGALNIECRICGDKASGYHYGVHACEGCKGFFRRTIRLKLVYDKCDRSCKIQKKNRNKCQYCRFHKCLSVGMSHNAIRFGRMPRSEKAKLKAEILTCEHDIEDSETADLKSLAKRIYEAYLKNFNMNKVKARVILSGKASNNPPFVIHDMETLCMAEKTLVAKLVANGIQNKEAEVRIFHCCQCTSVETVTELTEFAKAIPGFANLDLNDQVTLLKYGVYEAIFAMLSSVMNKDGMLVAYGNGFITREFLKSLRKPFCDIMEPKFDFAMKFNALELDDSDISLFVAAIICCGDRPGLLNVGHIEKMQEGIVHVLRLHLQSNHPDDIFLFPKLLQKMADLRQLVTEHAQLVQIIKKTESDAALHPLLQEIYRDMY
Kind of experiment: Binding affinity to PPARalpha (unknown origin) at 30 uM by TR-FRET based LanthaScreen competitive binding assay relative to control. On the technique in general: In TR-FRET formats the signal depends on donor and acceptor labels being close together.

Experiment [2] addresses T2, Peroxisome proliferator-activated receptor delta (Homo sapiens) (UniProt Q03181).
T2 sequence (whole entry): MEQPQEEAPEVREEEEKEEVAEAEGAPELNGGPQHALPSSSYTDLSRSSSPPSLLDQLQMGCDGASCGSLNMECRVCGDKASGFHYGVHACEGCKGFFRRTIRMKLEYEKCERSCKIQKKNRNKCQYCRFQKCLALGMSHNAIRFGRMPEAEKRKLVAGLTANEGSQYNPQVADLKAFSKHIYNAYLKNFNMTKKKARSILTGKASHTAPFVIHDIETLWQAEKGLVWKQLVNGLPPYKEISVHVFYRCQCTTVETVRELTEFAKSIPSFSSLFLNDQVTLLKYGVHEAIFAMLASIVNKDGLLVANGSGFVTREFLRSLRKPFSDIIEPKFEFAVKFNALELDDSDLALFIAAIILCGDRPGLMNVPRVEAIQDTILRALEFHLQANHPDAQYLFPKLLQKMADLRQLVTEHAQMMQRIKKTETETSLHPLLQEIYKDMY
The experiment in a line: Binding affinity to PPARdelta (unknown origin) at 30 uM by TR-FRET based LanthaScreen competitive binding assay relative to control.

Compound `O[C@H]1[C@H](Cn2cnc3c(NCc4cccc(I)c4)nc(I)nc32)CC[C@H]1O` came in with an Activity in experiment [1] of 13.8%.
The same measure, in the same setting: in the case of `O[C@@H]1[C@H](O)C=C[C@H]1Cn1cnc2c(NCc3cccc(I)c3)nc(Cl)nc21` it was 5.1%; in that of `O[C@@H]1C[C@@H]2C[C@]2(Cn2cnc3c(NCc4cccc(I)c4)nc(I)nc32)[C@@H]1O`, 2%; in that of `O[C@H]1[C@H](Cn2cnc3c(NCc4cccc(I)c4)nc(Cl)nc32)CC[C@H]1O`, 6.5%.
Same read-out and setting: the value for `O[C@@H]1[C@H](O)C=C[C@H]1Cn1cnc2c(NCc3cccc(Br)c3)nc(Cl)nc21` was 5.4%.
Take `CCc1ccc(CCOc2ccc(CC3SC(=O)NC3=O)cc2)nc1` (stereo not given): in experiment [2], the Activity was 9.3%.
In experiment [1], `O[C@@H]1C[C@@H]2C[C@]2(Cn2cnc3c(NCc4cccc(Br)c4)nc(Cl)nc32)[C@@H]1O` showed an Activity of 0.7%.
Still for that read-out and setting: in the case of `O[C@@H]1[C@H](O)[C@@H]2C[C@@H]2[C@H]1Cn1cnc2c(NCc3cccc(C(F)(F)F)c3)nc(Cl)nc21` it was 3%; in that of `O[C@@H]1[C@H](O)[C@@H]2C[C@@H]2[C@H]1Cn1cnc2c(NCc3cccc(I)c3)nc(Cl)nc21`, 7.3%; in that of `O[C@@H]1C[C@@H]2C[C@]2(Cn2cnc3c(NCc4cccc(Cl)c4)nc(Cl)nc32)[C@@H]1O`, 6.1%.
On the same count and under the same terms, in the case of `O[C@@H]1C[C@@H]2C[C@]2(Cn2cnc3c(NCc4cccc(I)c4)nc(Cl)nc32)[C@@H]1O` it was 3.9%; in that of `O[C@@H]1[C@H](O)CS[C@H]1Cn1cnc2c(NCc3cccc(Cl)c3)nc(I)nc21`, 20.4%.
Same read-out and setting: the value for `O[C@@H]1[C@H](O)[C@@H]2C[C@@H]2[C@H]1Cn1cnc2c(NCc3cccc(Br)c3)nc(Cl)nc21` was 11.6%.
In the case of `O[C@@H]1[C@H](O)[C@@H]2C[C@@H]2[C@H]1Cn1cnc2c(NCc3cccc(I)c3)nc(I)nc21`, the Activity in experiment [1] amounted to 20.6%.
`O[C@H]1[C@H](Cn2cnc3c(NCc4cccc(Br)c4)nc(Cl)nc32)CC[C@H]1O` yielded an Activity in experiment [1] of 14%.
